# Measurements: PubChem BioAssay AID743446 (Broad Institute, 2014)
# The entries are a selection whose mix differs from that of the whole data set. Measured potencies and affinities stand elsewhere. Calls of active or inactive are those of the source. No rule for the calls is given here.
# Assay: viability loss in HEK293 cells – cell-based, plate reader, cherry-picked samples, cytotoxicity control, dose response (AID 743446)
# Conditions: at 26 µM, active compounds read low
smiles,measurement,value
COc1cccc(C(c2nnnn2C2CCCCC2)N2CCC(n3c(=O)[nH]c4ccccc43)CC2)c1OC (stereo unspecified),max activity,inactive: -57%
